Measurements as given in publication PMC11524583, “Neurons enhance blood–brain barrier function via upregulating claudin-5 and VE-cadherin expression due to glial cell line-derived neurotrophic factor secretion” (eLife, 2024).
Read-outs that look alike come from different tables or passages of the source.

How the values were obtained:
[1] = system: hCMEC/D3 mono-culture BBB model
in vitro [2] = settings: human
in vitro [3] = settings: human; remark: listed apart in the source
[4] = system: triple co-culture BBB model (hCMEC/D3, U251 and SH-SY5Y cells); settings: human

With `NC12CC3CC(CC(C3)C1)C2` [Amantadine] the Papp A→B ([1]; human, 30 min) was 5.44 ×10⁻⁶ cm/s.
`CN(C)CCC=C1c2ccccc2CCc2ccccc21` [Amitriptyline] showed a Papp A→B ([1]; human, 30 min) of 14.3 ×10⁻⁶ cm/s.
Compound `CC(NC(C)(C)C)C(=O)c1cccc(Cl)c1` (centres unmarked) [Buproprion] has a Papp A→B [1] of 15.6 ×10⁻⁶ cm/s.
For `CN(C)CCC=C1c2ccccc2COc2ccccc21` [Doxepin], the Papp A→B ([1]; human, 30 min) was 14.3 ×10⁻⁶ cm/s, the Papp A→B at 30 min (in vitro [2]; Papp Mean) was 10.7 ×10⁻⁶ cm/s and the Papp A→B at 30 min (in vitro [2]; Papp, Triple) was 10.7 ± 0.92 ×10⁻⁶ cm/s.
With `NCC1(CC(=O)O)CCCCC1` [Gabapentin] the Papp A→B (in vitro [3]; Papp, Mono, apical to basolateral, 30 min, 37°C, day 6, mean ± SEM, four biological replicates) was 16.8 ± 1.62 ×10⁻⁶ cm/s.
Compound `CCN(CC)CCNC(=O)c1cc(Cl)c(N)cc1OC` [Metoclopramide] has a Papp A→B ([1]; human, 30 min) of 14.3 ×10⁻⁶ cm/s, a Papp A→B ([4]; 30 min) of 6.51 ×10⁻⁶ cm/s and a Papp A→B at 30 min (in vitro [2]; Papp, Triple) of 6.63 ± 0.42 ×10⁻⁶ cm/s.
In the case of `Cc1cc2c(s1)Nc1ccccc1N=C2N1CCN(C)CC1` [Olanzapine], the “PSPre, Mono” value ([1]; human) is reported as 6064.41 µL/min/g, the PS ([1]; human, 30 min) is reported as 6064.41 µL/min/g and the “PSPre, Triple” value [4] is reported as 3306.18 µL/min/g. It also gave a PS ([4]; 30 min) of 3306.18 µL/min/g, a Papp A→B at 30 min (in vitro [3]; Papp Mean) of 22.9 ×10⁻⁶ cm/s and a Papp A→B at 30 min (in vitro [3]; Papp, Mono) of 22.9 ± 3.8 ×10⁻⁶ cm/s.
In the case of `Cc1nc2n(c(=O)c1CCN1CCC(c3noc4cc(F)ccc34)CC1)CCCC2` [Risperidone], the “PSPre, Mono” value ([1]; human) is reported as 1463.64 µL/min/g, the PS ([1]; human, 30 min) is reported as 1463.64 µL/min/g and the “PSPre, Triple” value [4] is reported as 1063.64 µL/min/g. The PS ([4]; 30 min) was 1063.64 µL/min/g, the Papp A→B at 30 min (in vitro [3]; Papp, Mono) was 16.1 ± 2.87 ×10⁻⁶ cm/s and the Papp A→B at 30 min (in vitro [2]; Papp (individual replicate)) was 12.6 ×10⁻⁶ cm/s. The Papp A→B at 30 min (in vitro [2]; Papp, Triple) was 11.7 ± 0.25 ×10⁻⁶ cm/s.
